AlphaSeq binding of Ab-14 heavy chain variants to a spike HR2 peptide

Target: peptide PDVDLGDISGINAS, taken from heptad repeat 2 (HR2) of SARS-CoV-2 spike.

The variants keep the light chain, the linker and the frameworks of Ab-14 (scFv order VH, a (GGGGS)3 linker, VL).
VH: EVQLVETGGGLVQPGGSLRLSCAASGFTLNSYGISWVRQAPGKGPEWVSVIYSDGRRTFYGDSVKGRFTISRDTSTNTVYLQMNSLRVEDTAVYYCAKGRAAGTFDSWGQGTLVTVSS
VL: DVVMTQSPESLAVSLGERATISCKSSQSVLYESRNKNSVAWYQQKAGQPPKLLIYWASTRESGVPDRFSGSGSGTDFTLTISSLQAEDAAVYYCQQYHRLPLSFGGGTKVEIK

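The starting antibody came from a phage panning campaign against this peptide. This is the validation round: designs drawn from the data on random variants, tested in the same kind of assay. Their group label is 14H_GPLM_Gen (GPLM: also part of the Gaussian process libraries; Gen: genetic algorithm; a sequence that several methods proposed may carry one label only). Affinity was read by AlphaSeq, a pooled yeast mating assay with surface-displayed partners. Pairs that bind mate more often; barcode pairs of the diploids are counted by sequencing. Each replicate has its own calibration line, from reference interactions of the BCL2 family. Mating was done six times.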

Variants are written as CDR1, CDR2 and CDR3 of the heavy chain (limits as in the source). Parent: GFTLNSYGIS, VIYSDGRRTFYGDSVK, GRAAGTFDS.
Values are log10 of the apparent Kd in nM; lower means stronger binding.
"nd" marks a missing value. The strain was present, yet no cells mated with the target were sequenced in that replicate, which points to weak or no binding.
The authors averaged sequences with at least three values out of six and counted those with two or fewer as poor binders.
A sequence measured in both rounds can read differently, since the two assays cover different ranges.
Nonspecific signal, from three strains lacking the peptide, appeared in 1% of pairings of all heavy chain designs, centred on 2.08 (5% of these signals below 0.84); values are not corrected for it. For each scFv, signals with the empty controls are counted beside the result.

The variant GFSLNSYGIS | VIYSDGKRTFYADSVK | GRTAGTFDS showed 0.62, 0.23, 0.32, 0.46, 0.41, 0.18 (controls 0 of 18).
The variant GFSLNEYGIS | VIYSDGRRTFYQDSVK | GQAAGTFDS showed 0.30, -0.13, -0.02, -0.08, -0.14, 0.00 (controls 1 of 18).
The variant GFSLNDYGIS | VIYSDGRRTFYGDQVK | GRTAGTFDS showed -0.13, -0.35, -0.39, -0.47, -0.10, 0.57 (controls 0 of 18).
The variant GFSLNMYGIS | VIYSDGRRTFYGDSVK | GEAAGTFDS showed 1.65, 0.83, 0.62, 0.71, 1.09, 0.69 (controls 0 of 18).
The variant GFTLESYGIS | VIYSDGRRTFYHDSVK | GRAAGTFDS showed nd, 0.23, nd, -0.45, 0.70, 0.05 (controls 0 of 18).
The variant GFLLNSYGIS | VIYADGRRTFYGDSVK | GQAAGTFDS showed 0.35, 0.30, 0.15, 0.28, -0.01, 0.39 (controls 0 of 18).
The variant GFTLNSYGIS | VIYADGRRTFYGDSVK | GQAAGTFIS showed nd, nd, nd, nd, nd, nd (controls 0 of 18).
The variant GFDLNSYGIS | VIYSDGRRTFYGDSVK | GRVAGSFDS showed 0.56, 0.22, 0.19, 0.17, 0.26, 0.33 (controls 1 of 18).
The variant GFSLNSYGIS | VIYSDGRRTFYKDSVK | GRVAGTFDS showed 0.39, 0.47, 0.16, 0.31, 0.39, 0.64 (controls 0 of 18).
The variant GFSLNSYGIS | VIYSDGRRTWYADSVK | GRAAGTFDS showed 0.14, 0.75, 0.24, -0.17, 0.36, 0.23 (controls 0 of 18).
The variant GFSLNSYGIS | VIYSDGRRTFYGDDVK | GQTAGTFDS showed nd, 0.27, -0.07, nd, nd, nd (controls 0 of 18).
The variant GFSLNSYGIS | VIYSDGRRTFYGDSVK | GSAAGTFDQ showed 0.03, 0.42, 0.89, 0.37, 0.69, 0.54 (controls 0 of 18).
The variant GFTLNSYGIS | VIYSDGKRTFYADSVK | GQAAGTFDS showed 2.59, 2.36, 2.20, nd, nd, nd (controls 1 of 18).
The variant GFTLNEYGIS | VIYSDGRRTFYSDSVK | GQAAGTFDS showed 0.60, 0.17, -0.03, 0.10, 0.14, 0.35 (controls 0 of 18).
The variant GFSLNSYGIS | VIYADGRRTVYGDSVK | GRAAGTFDS showed 0.10, -0.15, 0.38, -0.07, -0.43, -0.19 (controls 0 of 18).
The variant GFTLNSYGIS | VIYSDGRRTFYSDSVK | GHAAGTFDS showed 0.73, 0.58, 0.31, 0.43, 0.23, 0.78 (controls 2 of 18).
The variant GFVLNEYGIS | VIYSDGRRTFYADSVK | GRTAGTFDS showed 0.40, 0.07, -0.04, -0.06, 0.16, 0.21 (controls 0 of 18).
The variant GFSLNSYGIS | VIYSDGRRTFYVDSVK | GQVAGTFDS showed nd, 1.38, 1.99, nd, 1.84, nd (controls 0 of 18).
The variant GFSLNSYGIS | VIYSDGRRTFYCDSVK | GNAAGTFDS showed 1.13, 1.41, 1.92, 0.56, 2.91, 1.05 (controls 1 of 18).
The variant GFSLNSYGIS | VIYADGRRTFYVDSVK | GRAAGTFDS showed 0.71, 1.17, 0.63, -0.41, -0.70, 1.60 (controls 0 of 18).
The variant GFSLNQYGIS | VIYSDGRRTFYGDSVK | GRTAGTFDS showed -0.20, -0.09, -0.01, 0.28, -0.41, -0.02 (controls 0 of 18).
The variant GFTLNEYGIS | VIYSDGRRTFYADSVK | GRAAGTFDK showed -0.11, -0.03, 0.10, -0.31, -0.19, -0.11 (controls 0 of 18).
The variant GFSLNSYGIS | VIYSDGRRTFYADRVK | GQAAGTFDS showed 1.71, 0.85, 0.63, 0.82, 0.74, 0.63 (controls 1 of 18).
The variant GFTLNSYGIS | VIYSDGRRTFYADSVK | GREAGTFDT showed -0.18, 0.01, -0.30, -0.22, -0.06, 0.21 (controls 0 of 18).
The variant GFTLNSYGIS | VIYSDGRRTFYGDSVK | GQTAGTFDS showed nd, nd, 2.17, nd, 1.30, nd (controls 0 of 18).
The variant GFDLNSYGIS | VIYSDGRRTWYGDSVK | GRTAGTFDS showed nd, 0.07, 1.63, 1.33, 1.02, nd (controls 0 of 18).
The variant GFSLNSYGIS | VIYSDGRRTFYVDSVK | GNAAGTFDS showed 1.66, 0.10, 0.72, 1.44, 0.37, 3.73 (controls 0 of 18).
The variant GFTLNSYGIS | VIYSDGRRTFYSDQVK | GEAAGTFDS showed 1.11, 1.37, 1.41, 0.70, 0.89, 1.22 (controls 0 of 18).
The variant GFDLNSYGIS | VIYSDGRRTFYGDSVK | GEAAGTFDD showed 0.09, 0.26, 0.15, 0.26, -0.31, -0.14 (controls 2 of 18).
The variant GFDLNMYGIS | VIYSDGRRTFYADSVK | GQAAGTFDS showed 0.47, -0.16, -0.27, -0.39, -0.14, -0.39 (controls 0 of 18).
The variant GFSLNSYGIS | VIYSDGRRTFYADQVK | GQTAGTFDS showed 0.65, 0.01, -0.17, -0.20, 0.10, 0.74 (controls 0 of 18).
The variant SFSLNSYGIS | VIYSDGRRTFYGDSVK | GQTAGTFDS showed nd, nd, 2.04, 2.05, nd, nd (controls 0 of 18).
The variant GFSLNQYGIS | VIYSDGRRTFYGDSVK | GRQAGTFDS showed 0.32, 0.12, 0.43, -0.42, -0.67, -0.53 (controls 0 of 18).
The variant GFSLNSYGIS | VIYSDGRRTFYADSVK | GRTAGTFDL showed nd, 0.13, -0.06, -0.18, 0.43, 0.79 (controls 0 of 18).
The variant GFNLNSYGIS | VIYSDGRRTFYTDSVK | GQAAGTFDS showed 0.21, 0.19, 1.43, 0.29, 0.69, 0.42 (controls 1 of 18).
The variant GFSLNSYGIS | VIYSDGRRTFYADSVK | GWMAGTFDS showed 0.51, 0.74, 0.48, 0.08, 0.23, 0.34 (controls 0 of 18).
The variant GFSLNEYGIS | VIYSDGRRTFYGDSVK | GKEAGTFDS showed -0.02, -0.31, -0.35, -0.12, 0.24, -0.02 (controls 1 of 18).
The variant GFDLNSYGIS | VIYSDGRRTFYDDSVK | GRVAGTFDS showed -0.28, 0.15, 0.43, 0.43, 0.09, 0.09 (controls 0 of 18).
The variant GFNLNSYGIS | VIYSDGRRTFYGDGVK | GRTAGTFDS showed 0.77, 1.75, 1.21, 0.56, 0.55, 1.42 (controls 0 of 18).
The variant GFTLNEYGIS | VIYSDGRRTFYHDSVK | GRTAGTFDS showed 0.13, -0.15, -0.11, -0.07, -0.39, 0.52 (controls 0 of 18).
The variant GFLLNSYGIS | VIYSDGRRTFYADSVK | GQAAGTFDS showed 1.12, 0.63, 0.43, 0.38, 0.52, 0.95 (controls 0 of 18).
The variant GKSLNSYGIS | VIYSDGRRTFYGDSVK | GRTAGTFDS showed nd, nd, nd, 2.27, nd, nd (controls 0 of 18).
The variant GFTLNSYGIS | VIYSDGKRTFYIDSVK | GNAAGTFDS showed 1.03, 0.93, 0.69, 0.40, 0.58, 0.72 (controls 0 of 18).
The variant YFTLNSYGIS | VIYADGRRTFYGDSVK | GEAAGTFDS showed nd, 1.02, 1.37, 1.02, 1.10, 1.89 (controls 0 of 18).
The variant GFDLNEYGIS | VIYSDGRRTFYGDSVK | GRTAGTFDS showed -0.57, -0.44, -0.73, -0.62, -0.82, -0.34 (controls 1 of 18).
The variant GFSLNDYGIS | VIYSDGRRTFYADSVK | GRNAGTFDS showed -0.19, -0.39, -0.24, -0.45, 0.07, -0.39 (controls 0 of 18).
The variant GFDLNSYGIS | VIYSDGRRTFYGDSVK | GKAAGTFDQ showed nd, 0.32, 1.01, 0.46, 1.13, 0.58 (controls 0 of 18).
The variant GFTLESYGIS | VIYSDGRRTFYADSVK | GRTAGTFDS showed 0.42, 0.01, 0.07, 0.38, 0.16, 0.29 (controls 0 of 18).
The variant GFSLNEYGIS | VIYSDGRRTFYGDSVK | GRTAGTFDN showed -0.14, -0.17, -0.31, 0.20, -0.06, 0.05 (controls 0 of 18).
The variant GFTLESYGIS | VIYADGRRTFYGDSVK | GRAAGTFES showed 0.29, -0.15, -0.24, 0.09, 0.52, 0.59 (controls 0 of 18).
The variant GFSLNEYGIS | VIYSDGRRTFYGDSVK | GQAAGTFDG showed nd, 0.46, 1.31, 0.09, 1.37, 0.84 (controls 0 of 18).
The variant GFTLNSYGIS | VIYSDGRRTFYQDSVK | GQTAGTFDS showed nd, nd, nd, nd, nd, nd (controls 0 of 18).

Extract of 8 entries:

With GFSLNMYGIS | VIYSDGRRTFYGDSVK | GEAAGTFDS the result was 1.65, 0.83, 0.62, 0.71, 1.09, 0.69 (controls 0 of 18).
With GFTLESYGIS | VIYSDGRRTFYHDSVK | GRAAGTFDS the result was nd, 0.23, nd, -0.45, 0.70, 0.05 (controls 0 of 18).
With GFSLNSYGIS | VIYADGRRTVYGDSVK | GRAAGTFDS the result was 0.10, -0.15, 0.38, -0.07, -0.43, -0.19 (controls 0 of 18).
With GFLLNSYGIS | VIYSDGRRTFYADSVK | GQAAGTFDS the result was 1.12, 0.63, 0.43, 0.38, 0.52, 0.95 (controls 0 of 18).
With GFTLNSYGIS | VIYSDGRRTFYADSVK | GREAGTFDT the result was -0.18, 0.01, -0.30, -0.22, -0.06, 0.21 (controls 0 of 18).
With GFSLNSYGIS | VIYSDGRRTFYKDSVK | GRVAGTFDS the result was 0.39, 0.47, 0.16, 0.31, 0.39, 0.64 (controls 0 of 18).
With YFTLNSYGIS | VIYADGRRTFYGDSVK | GEAAGTFDS the result was nd, 1.02, 1.37, 1.02, 1.10, 1.89 (controls 0 of 18).
With GKSLNSYGIS | VIYSDGRRTFYGDSVK | GRTAGTFDS the result was nd, nd, nd, 2.27, nd, nd (controls 0 of 18).

The measurements come from Li et al. 2023 (doi:10.1038/s41467-023-39022-2) through the FLAb antibody collection.